Literature values in PubChem BioAssay AID1811.

Columns and labels:
Test in all cases: PubChem AID 1811
[1] = target: Renilla-luciferin 2-monooxygenase; conditions: PDB complex binding affinities from literature; Ki when reported
[2] = target: a/g-specific adenine glycosylase; conditions: PDB complex binding affinities from literature; Kd when reported
mta/sah nucleosidase = conditions: PDB complex binding affinities from literature; Ki when reported
Dimeric dihydrodiol = conditions: PDB complex binding affinities from literature; IC50 when reported
Beta-secretase 1 = conditions: PDB complex binding affinities from literature; IC50 when reported
[3] = target: GLYCEROL-3-PHOSPHATE DEHYDROGENASE; conditions: PDB complex binding affinities from literature; IC50 when reported
[4] = target: pulmonary surfactant-associated protein d; conditions: PDB complex binding affinities from literature; IC50 when reported
alpha-mannosidase II = conditions: PDB complex binding affinities from literature; IC50 when reported
Estrogen receptor alpha = conditions: PDB complex binding affinities from literature; Ki when reported
[5] = target: serine/threonine-protein kinase pknb; conditions: PDB complex binding affinities from literature; IC50 when reported
[6] = target: 3-OXOACYL-[ACYL-CARRIER-PROTEIN] SYNTHASE 1; conditions: PDB complex binding affinities from literature; Kd when reported
[7] = target: beta-ketoacyl-[acyl carrier protein] synthase i; conditions: PDB complex binding affinities from literature; Kd when reported
CpNagJ = conditions: PDB complex binding affinities from literature; Ki when reported
Pantothenate kinase = conditions: PDB complex binding affinities from literature; Kd when reported
[8] = target: carbamoyl-phosphate synthase; conditions: PDB complex binding affinities from literature; Ki when reported
[9] = target: potassium-transporting atpase b chain; conditions: PDB complex binding affinities from literature; Kd when reported
[10] = target: cell division protein kinase 6; conditions: PDB complex binding affinities from literature; IC50 when reported
streptavidin = conditions: PDB complex binding affinities from literature; Kd when reported
[11] = target: sarcoplasmic/endoplasmic reticulum calcium; conditions: PDB complex binding affinities from literature; Kd when reported
[12] = target: phosphoenolpyruvate-protein phosphotransferase; conditions: PDB complex binding affinities from literature; Ki when reported
[13] = target: phosphonopyruvate hydrolase; conditions: PDB complex binding affinities from literature; Ki when reported
[14] = target: Replicase polyprotein 1ab; conditions: PDB complex binding affinities from literature; Ki when reported
coagulation factor vii = conditions: PDB complex binding affinities from literature; IC50 when reported
adam 17 = conditions: PDB complex binding affinities from literature; Kd when reported
thrombin light chain = conditions: PDB complex binding affinities from literature; IC50 when reported
[15] = target: Human Beta-Secretase (BACE); conditions: PDB complex binding affinities from literature; IC50 when reported
beta-phosphoglucomutase = conditions: PDB complex binding affinities from literature; Ki when reported
1RYF A = conditions: PDB complex binding affinities from literature; Kd when reported
[16] = target: adp-ribosylation factor-like protein 3; conditions: PDB complex binding affinities from literature; Kd when reported
elongation factor 2 = conditions: PDB complex binding affinities from literature; Kd when reported
elongation factor g = conditions: PDB complex binding affinities from literature; Kd when reported
[17] = target: elongation factor tu (ef-tu); conditions: PDB complex binding affinities from literature; Kd when reported
[18] = target: eukaryotic peptide chain release factor gtp; conditions: PDB complex binding affinities from literature; Kd when reported
[19] = target: interferon-inducible gtpase; conditions: PDB complex binding affinities from literature; Kd when reported
[20] = target: protein-glutamine glutamyltransferase e; conditions: PDB complex binding affinities from literature; Kd when reported
ctp synthase = conditions: PDB complex binding affinities from literature; Ki when reported
[21] = target: apoptosis regulator bcl-x; conditions: PDB complex binding affinities from literature; Kd when reported
[22] = target: proto-oncogene tyrosine-protein kinase src; conditions: PDB complex binding affinities from literature; IC50 when reported
[23] = target: STEROID DELTA-ISOMERASE(P39A); conditions: PDB complex binding affinities from literature; Kd when reported
[24] = target: CORTICOSTEROID-BINDING GLOBULIN; conditions: PDB complex binding affinities from literature; Kd when reported
chorismate mutase = conditions: PDB complex binding affinities from literature; Ki when reported
[25] = target: hypoxia-inducible factor 1 alpha inhibitor; conditions: PDB complex binding affinities from literature; Ki when reported
Sucrose isomerase = conditions: PDB complex binding affinities from literature; Ki when reported
[26] = target: histone acetylatransferase pcaf; conditions: PDB complex binding affinities from literature; IC50 when reported
[27] = target: Fructose-bisphosphate aldolase A; conditions: PDB complex binding affinities from literature; Ki when reported

SMILES: O=C(Cc1ccc(O)cc1)Nc1ncc(-c2ccc(O)cc2)nc1Cc1ccccc1
- Ki [1]: 0.02 µM

SMILES: Nc1ncnc2nc[nH]c12
- Kd [2]: 0.001 µM
- Ki (mta/sah nucleosidase): 300 µM

SMILES: CC(=O)c1ccc(O)cc1
- IC50 (Dimeric dihydrodiol): 0.97 µM

SMILES: C[C@@H](NC(=O)c1cc(COC(=O)[C@](C)(N)Cc2ccccc2)cc(N(C)S(C)(=O)=O)c1)c1ccc(F)cc1
- IC50 (Beta-secretase 1): 0.027 µM

SMILES: Fc1nc(Cl)c2[nH]cnc2n1
- IC50 [3]: 5000 µM

SMILES: OC[C@H]1O[C@H](O[C@H]2[C@H](O)[C@@H](O)[C@@H](O[C@H]3[C@H](O)[C@@H](O)[C@H](O)O[C@@H]3CO)O[C@@H]2CO)[C@H](O)[C@@H](O)[C@@H]1O
- IC50 [4]: 940 µM

SMILES: OC[C@@H](NC[C@H]1NC[C@H](O)[C@@H]1O)c1ccccc1
- IC50 (alpha-mannosidase II): 720 µM

SMILES: Oc1ccc([C@@H]2Oc3cccc(O)c3[C@@H]3CCC[C@@H]32)cc1
- Ki (Estrogen receptor alpha): 0.00029 µM

SMILES: O=C1c2c(O)ccc(O)c2C(=O)c2c(NCCNCCO)ccc(NCCNCCO)c21
- IC50 [5]: 0.8 µM

SMILES: C=C/C(C)=C/[C@@]1(C)SC(=O)C(C)=C1O
- Kd [6]: 25 µM
- Kd [7]: 26 µM

SMILES: CC(=O)N[C@H]1/C(=N/OC(=O)Nc2ccccc2)O[C@H](CO)[C@@H](O)[C@@H]1O
- Ki (CpNagJ): 0.0054 µM

SMILES: Nc1ncnc2c1ncn2[C@@H]1O[C@H](COP(=O)(O)OP(=O)(O)NP(=O)(O)O)[C@@H](O)[C@H]1O
- Kd (Pantothenate kinase): 0.24 µM
- Ki [8]: 400 µM
- Kd [9]: 1400 µM

SMILES: CC(C)[C@@H](CO)Nc1nc(Nc2cc(N)cc(Cl)c2)c2ncn(C(C)C)c2n1
- IC50 [10]: 0.45 µM

SMILES: NC1=N[C@H]2[C@H](CS[C@H]2CCCCC(=O)O)N1
- Kd (streptavidin): 1 µM

SMILES: CC(C)(C)c1cc(O)c(C(C)(C)C)cc1O
- Kd [11]: 0.02 µM

SMILES: O=C(O)C(=O)O
- Ki [12]: 280 µM
- Ki [13]: 17 µM

SMILES: c1ccccc1
- Ki [14]: 0.7 µM

SMILES: CCS(=O)(=O)N[C@H](Cc1ccc(-c2ccccc2)cc1)C(=O)N[C@@H](CCC(N)=O)C(=O)NCc1ccc(C(=N)N)cc1
- IC50 (coagulation factor vii): 0.093 µM

SMILES: Cc1cc(COc2ccc([C@]3(C)CCN([C@H](C)C(=O)NO)C3=O)cc2)c2ccccc2n1
- Kd (adam 17): < 2 pM

SMILES: N=C(N)c1ccc(CNC(=O)[C@@H]2CCCN2C(=O)[C@@H](CC2CCCCC2)NCC(=O)O)s1
- IC50 (thrombin light chain): 0.00098 µM

SMILES: CCCN(CCC)C(=O)c1cc(C)cc(C(=O)N[C@@H](Cc2cc(F)cc(F)c2)[C@H](O)CNCc2cccc(I)c2)c1
- IC50 [15]: 0.005 µM

SMILES: O=P(O)(O)O[C@H]1O[C@H](CO)[C@H](O)[C@H](O)[C@H]1O
- Ki (beta-phosphoglucomutase): 30 µM

SMILES: Nc1nc2c(ncn2[C@@H]2O[C@H](COP(=O)(O)OP(=O)(O)O)[C@@H](O)[C@H]2O)c(=O)[nH]1
- Kd (1RYF A): 0.0016 µM
- Kd [16]: 0.024 µM
- Kd (elongation factor 2): 3.9 µM
- Kd (elongation factor g): 11 µM
- Kd [17]: 1 µM
- Kd [18]: 3.8 µM
- Kd [19]: 0.64 µM
- Kd [20]: 1.7 µM

SMILES: Nc1ccn([C@@H]2O[C@H](COP(=O)(O)OP(=O)(O)OP(=O)(O)O)[C@@H](O)[C@H]2O)c(=O)n1
- Ki (ctp synthase): 110 µM

SMILES: O=C(O)c1ccc(-c2ccc(F)cc2)cc1
- Kd [21]: 300 µM

SMILES: CN1CCN(Cc2ccc(C(=O)Nc3cccc(Nc4nccc(-c5cccnc5)n4)c3)cc2)CC1
- IC50 [22]: 1.63 µM

SMILES: C[C@]12CCc3c(ccc4cc(O)ccc34)[C@@H]1CCC2=O
- Kd [23]: 1.4 µM

SMILES: C[C@]12CCC(=O)C=C1CC[C@@H]1[C@@H]2[C@@H](O)C[C@@]2(C)[C@H]1CC[C@]2(O)C(=O)CO
- Kd [24]: 0.005 µM

SMILES: N[C@@H](Cc1ccc(O)cc1)C(=O)O
- Ki (chorismate mutase): 50 µM

SMILES: O=C(O)C(=O)N[C@H](Cc1ccccc1)C(=O)O
- Ki [25]: 83 µM

SMILES: O[C@H]1[C@H](O)[C@@H](O)CN2CC[C@H](O)[C@H]12
- Ki (Sucrose isomerase): 15 µM

SMILES: Cc1ccc(NCCCN)c([N+](=O)[O-])c1
- IC50 [26]: 1.6 µM

SMILES: O=C(Nc1ccc(Cl)cc1)c1cc2ccccc2cc1OP(=O)(O)O
- Ki [27]: 100 µM
